Test results as given in article PMC6658998, “Pharmacological characterization of the seven human NOX isoforms and their inhibitors” (Redox Biology, 2019).

Amino acid sequences for entries named in this document (tags omitted). Residues count along the entry.
UniProt Q9NRD8, 26-1548: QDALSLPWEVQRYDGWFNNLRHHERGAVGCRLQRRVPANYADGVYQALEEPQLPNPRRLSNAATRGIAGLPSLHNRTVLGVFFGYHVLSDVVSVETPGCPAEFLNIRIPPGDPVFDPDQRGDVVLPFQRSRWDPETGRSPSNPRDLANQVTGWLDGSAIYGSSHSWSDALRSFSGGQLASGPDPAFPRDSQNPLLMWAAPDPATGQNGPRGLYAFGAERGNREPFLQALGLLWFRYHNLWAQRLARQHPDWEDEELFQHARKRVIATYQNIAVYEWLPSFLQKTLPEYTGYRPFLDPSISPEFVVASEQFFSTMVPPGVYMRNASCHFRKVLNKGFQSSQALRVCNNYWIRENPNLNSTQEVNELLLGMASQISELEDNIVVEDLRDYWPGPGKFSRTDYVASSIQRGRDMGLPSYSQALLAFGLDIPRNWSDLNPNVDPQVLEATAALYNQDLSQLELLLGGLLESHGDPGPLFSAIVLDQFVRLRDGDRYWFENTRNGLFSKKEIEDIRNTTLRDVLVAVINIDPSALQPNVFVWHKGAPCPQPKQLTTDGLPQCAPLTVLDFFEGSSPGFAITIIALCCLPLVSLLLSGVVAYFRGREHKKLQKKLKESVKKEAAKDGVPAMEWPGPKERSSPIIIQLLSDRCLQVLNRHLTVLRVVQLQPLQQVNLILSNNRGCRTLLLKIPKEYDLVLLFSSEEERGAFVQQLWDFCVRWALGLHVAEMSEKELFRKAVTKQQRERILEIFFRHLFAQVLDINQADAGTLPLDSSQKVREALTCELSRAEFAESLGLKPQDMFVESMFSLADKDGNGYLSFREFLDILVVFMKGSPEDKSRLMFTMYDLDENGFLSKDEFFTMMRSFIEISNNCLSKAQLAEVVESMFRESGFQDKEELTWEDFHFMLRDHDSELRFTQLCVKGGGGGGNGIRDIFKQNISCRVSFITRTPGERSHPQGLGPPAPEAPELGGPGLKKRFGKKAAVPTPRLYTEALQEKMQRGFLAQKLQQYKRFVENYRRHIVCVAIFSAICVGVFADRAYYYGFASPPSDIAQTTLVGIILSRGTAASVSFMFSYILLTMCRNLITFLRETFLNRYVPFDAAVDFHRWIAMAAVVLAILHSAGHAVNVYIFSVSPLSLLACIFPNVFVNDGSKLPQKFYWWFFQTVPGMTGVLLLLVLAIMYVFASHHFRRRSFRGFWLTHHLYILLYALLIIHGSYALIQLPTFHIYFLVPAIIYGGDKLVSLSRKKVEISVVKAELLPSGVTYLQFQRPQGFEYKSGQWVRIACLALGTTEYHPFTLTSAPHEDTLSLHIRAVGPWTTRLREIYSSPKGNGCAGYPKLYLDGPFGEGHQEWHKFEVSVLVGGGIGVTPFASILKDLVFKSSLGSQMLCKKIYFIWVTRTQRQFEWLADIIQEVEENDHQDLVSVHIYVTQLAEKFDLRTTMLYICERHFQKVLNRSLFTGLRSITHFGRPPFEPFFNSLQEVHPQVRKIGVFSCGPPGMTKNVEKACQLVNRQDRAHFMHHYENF

Assays:
human NOX1 [1] = target: T1, human NOX1 (Homo sapiens, UniProt Q9Y5S8); assay: WST-1 O2•- detection in NOX1-expressing CHO cells; format: cell-based
T1 construct: expressed in transfected cells; host or cells: CHO
T1 sequence (Q9Y5S8 1-564): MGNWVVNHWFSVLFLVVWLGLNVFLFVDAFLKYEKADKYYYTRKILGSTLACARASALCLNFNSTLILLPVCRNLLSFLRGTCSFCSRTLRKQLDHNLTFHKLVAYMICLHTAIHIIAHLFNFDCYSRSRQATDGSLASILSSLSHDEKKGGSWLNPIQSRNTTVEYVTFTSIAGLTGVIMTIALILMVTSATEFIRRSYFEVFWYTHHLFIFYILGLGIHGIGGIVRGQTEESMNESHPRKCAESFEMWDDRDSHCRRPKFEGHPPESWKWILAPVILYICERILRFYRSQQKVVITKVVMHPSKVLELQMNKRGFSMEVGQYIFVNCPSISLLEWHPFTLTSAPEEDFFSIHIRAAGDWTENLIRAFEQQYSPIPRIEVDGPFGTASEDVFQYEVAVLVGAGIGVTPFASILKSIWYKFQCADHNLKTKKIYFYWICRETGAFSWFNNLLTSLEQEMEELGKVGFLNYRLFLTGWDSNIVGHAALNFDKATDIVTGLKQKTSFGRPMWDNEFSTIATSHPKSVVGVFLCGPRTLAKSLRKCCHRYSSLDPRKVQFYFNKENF
T1 sequence (P13498 1-195 partner): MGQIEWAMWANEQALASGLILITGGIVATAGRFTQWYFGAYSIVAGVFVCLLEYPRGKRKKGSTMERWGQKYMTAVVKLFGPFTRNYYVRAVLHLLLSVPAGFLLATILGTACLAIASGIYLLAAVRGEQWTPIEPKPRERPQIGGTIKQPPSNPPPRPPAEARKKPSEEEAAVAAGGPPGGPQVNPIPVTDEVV

human NOX4 [2] = target: T2, human NOX4 (Homo sapiens, UniProt Q9NPH5); assay: Amplex Red/HRP H2O2 detection in tetracycline-induced NOX4 HEK293 T-REx cells
T2 sequence (Q9NPH5 1-578): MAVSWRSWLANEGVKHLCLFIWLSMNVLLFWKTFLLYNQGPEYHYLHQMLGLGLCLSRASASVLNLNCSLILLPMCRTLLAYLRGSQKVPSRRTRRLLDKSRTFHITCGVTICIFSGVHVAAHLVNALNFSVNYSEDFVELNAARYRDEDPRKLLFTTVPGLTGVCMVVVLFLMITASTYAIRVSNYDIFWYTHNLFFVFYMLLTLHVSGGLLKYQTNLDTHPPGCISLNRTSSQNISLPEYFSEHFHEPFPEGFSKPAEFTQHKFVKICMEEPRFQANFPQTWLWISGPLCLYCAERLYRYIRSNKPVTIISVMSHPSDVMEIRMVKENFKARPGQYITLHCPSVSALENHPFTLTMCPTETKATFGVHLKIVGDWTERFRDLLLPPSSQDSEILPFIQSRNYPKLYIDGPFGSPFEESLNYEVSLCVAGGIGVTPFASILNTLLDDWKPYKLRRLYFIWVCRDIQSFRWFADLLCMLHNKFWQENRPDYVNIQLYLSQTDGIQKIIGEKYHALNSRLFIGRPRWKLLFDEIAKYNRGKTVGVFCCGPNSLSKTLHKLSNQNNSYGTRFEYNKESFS
T2 sequence (P13498 1-195 partner): T1 sequence (P13498 1-195 partner)

human NOX4 [3] = target: T2, human NOX4; assay: WST-1 O2•- detection in tetracycline-induced NOX4 HEK293 T-REx cells; format: cell-based
human NOX1 [4] = target: T1, human NOX1; assay: Amplex Red/HRP H2O2 detection in NOX1-expressing CHO cells; format: cell-based
DUOX2 = target: T3, DUOX2 (Homo sapiens, UniProt Q9NRD8); assay: Amplex Red/HRP H2O2 detection in DUOX2-expressing HEK293 cells; format: cell-based
T3 construct: expressed in transfected cells; host or cells: HEK293, selected with G418 and zeocin

c1ccc2c(c1)[I+]c1ccccc1-2 [DPI, diphenylene iodonium chloride]
IC50 (human NOX1 [1]): 400 nM
IC50 (human NOX4 [2]): 2700 nM
IC50 (human NOX4 [3]): 400 nM
IC50 (human NOX1 [4]): 900 nM
IC50 (DUOX2): 1700 nM
